{
  "sequences": {"note": "Sequences of proteins named here, by UniProt entry; tags and fusion partners are left off.", "UniProt Q60492, whole entry": "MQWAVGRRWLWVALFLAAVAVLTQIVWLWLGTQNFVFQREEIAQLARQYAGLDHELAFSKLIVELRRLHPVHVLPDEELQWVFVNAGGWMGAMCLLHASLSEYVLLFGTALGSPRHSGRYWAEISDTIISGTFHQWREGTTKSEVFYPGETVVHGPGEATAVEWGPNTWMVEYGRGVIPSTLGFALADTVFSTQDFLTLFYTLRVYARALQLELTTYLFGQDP"},
  "source": "paper PMC6422167",
  "about": "(ChemMedChem, 2018)",
  "target": "σ1 receptor (Cavia porcellus, UniProt Q60492)",
  "experiment": "σ1 receptor binding affinity, competition against",
  "conditions": "read-out: Ki σ1; homogenate of guinea pig brain; tested as oxalate; mean ± SD",
  "data": [
    {"substance": "(-)-vesamicol [reference compound]", "values": [
      {"measurement": "Ki", "result": "25.8 ± 8", "unit": "nM"}
    ]}
  ]
}
